Values of other authors as cited in patent US8414660B2, “Haloferax volcanii laccase and variants and fragments thereof” (University of Florida Research Foundation, Inc., priority 2009, dated 2013).
Read-outs that look alike come from different tables or passages of the source.

Legend:
[1] = comparator laccase-like enzymes, literature, cited from earlier work
[2] = comparator laccase-like enzymes, literature, cited from earlier work; remark: listed apart in the source
[3] = 5 h at 90° C., literature; cited from earlier work

Substance: McoA [reference compound]
- kcat, SGZ [1]: 0.48 s⁻¹
- Km ([1]; read-out: Km, SGZ): 38 µM
- kcat, ABTS [2]: 2.1 s⁻¹
- Km ([2]; read-out: Km, ABTS): 128 µM
- Activity after incubation at high temperature [3]: ability to oxidize metals
